This assay has as its target Delta-type opioid receptor (Homo sapiens, UniProt P41143).

Data on one compound can be found in ChEMBL document CHEMBL1144935, “Synthesis, biological evaluation, and receptor docking simulations of 2-[(acylamino)ethyl]-1,4-benzodiazepines as kappa-opioid receptor agonists endowed with antinociceptive and antiamnesic activity” (J Med Chem, 2003).

Structures are written as SMILES.

Broadly, the Ki is the equilibrium dissociation constant of an inhibitor or competing ligand from its target. Low values mean tighter binding, high ones weaker binding. `CN1c2ccc(Cl)cc2C(c2ccccc2)=NCC1CCNC(=O)c1cccs1` (stereo unspecified) returned a Ki of 494 nM.
